Source: patent US20240116985A1, “STAPLED PEPTIDES AND METHODS THEREOF” (priority 2020, published 2024)

Protein sequences, listed by entry. Tags and fused reporters are not part of them.
UniProt P35222, whole entry: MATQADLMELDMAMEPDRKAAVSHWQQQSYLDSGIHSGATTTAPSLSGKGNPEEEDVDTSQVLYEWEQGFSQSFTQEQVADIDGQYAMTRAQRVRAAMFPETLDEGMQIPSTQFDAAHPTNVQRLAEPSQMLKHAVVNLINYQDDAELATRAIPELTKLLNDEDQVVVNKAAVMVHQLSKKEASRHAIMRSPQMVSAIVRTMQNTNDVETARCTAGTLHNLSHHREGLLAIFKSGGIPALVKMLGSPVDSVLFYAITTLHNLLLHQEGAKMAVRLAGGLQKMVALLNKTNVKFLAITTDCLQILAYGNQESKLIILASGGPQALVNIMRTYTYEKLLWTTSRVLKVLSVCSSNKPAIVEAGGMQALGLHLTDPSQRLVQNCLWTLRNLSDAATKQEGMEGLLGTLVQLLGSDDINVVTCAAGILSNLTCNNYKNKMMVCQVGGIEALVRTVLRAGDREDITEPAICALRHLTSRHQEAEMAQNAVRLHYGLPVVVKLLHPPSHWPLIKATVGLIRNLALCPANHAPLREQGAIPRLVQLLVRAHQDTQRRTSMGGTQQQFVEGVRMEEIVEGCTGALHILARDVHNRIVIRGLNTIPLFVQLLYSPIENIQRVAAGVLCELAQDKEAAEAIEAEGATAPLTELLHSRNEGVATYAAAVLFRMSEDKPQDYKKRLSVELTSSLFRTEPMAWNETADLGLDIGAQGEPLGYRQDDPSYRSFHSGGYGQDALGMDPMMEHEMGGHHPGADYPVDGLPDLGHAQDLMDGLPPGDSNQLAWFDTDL

Legend:
[1] = target: T1, beta-catenin/TCF4 engagement (Homo sapiens, UniProt P35222); assay: Nano-BRET target engagement assay (B-cat-Halo & TCF4-Luc in HEK293 cells); format: cell-based
T1 construct: expressed in transfected cells; host or cells: HEK293

[2] = target: T2, full-length beta-Catenin (Uniprot ID P35222) (Homo sapiens, UniProt P35222); assay: Fluorescence polarization IC50 (beta-catenin / 5FAM-TCF4 10-53 competition); format: binding; conditions: beta-Catenin FP IC50 (nM)
T2 construct: 10 nM full-length beta-Catenin (Uniprot ID P35222)

Row | IC50 [2] [nM] | IC50 ([1]; NanoBRET Abs IC50 (uM)) [µM] | SMILES | IC50 ([1]; NanoBRET Abs IC50, absolute IC50) [µM]
1 | – | – | CC(=O)N1CCC[C@]12CC=CCCCC1(CCCC=CCCCOC(=O)N3CC[C@@](C(=O)N[C@@H](Cc4ccccc4C(F)(F)F)C(=O)N[C@@H](Cc4csc5ccccc45)C(=O)N[C@@H](CCC(N)=O)C(N)=O)(C3)NC(=O)[C@H](CC(C)C)NC(=O)[C@H](Cc3ccccc3)NC(=O)[C@H](C)NC(=O)[C@H](C)NC(=O)[C@H](Cc3cccc(C(=O)O)c3)NC(=O)[C@H](CC(=O)O)NC1=O)NC(=O)[C@H](CC(C)(C)C)NC(=O)[C@H](CC(=O)O)NC2=O (stereo partly drawn) [I-1466, Ac-PL3-Asp-Npg-B5-Asp-3COOHF-Ala-Ala-Phe-Leu-PyrS2-2F3MeF-BztA-Gln-NH2] | 2.2
2 | 28 | 2.9 | CC(=O)N1CCC[C@]12CC=CCCCC1(CCCC=CCCCOC(=O)N3CC[C@@](C(=O)N[C@@H](Cc4ccccc4C(F)(F)F)C(=O)N[C@@H](Cc4csc5ccccc45)C(=O)N[C@H](CCC(N)=O)C(N)=O)(C3)NC(=O)[C@H](CC(C)C)NC(=O)[C@H](Cc3ccccc3)NC(=O)[C@H](C)NC(=O)[C@H](C)NC(=O)[C@H](Cc3cccc(C(=O)O)c3)NC(=O)[C@H](CC(=O)O)NC1=O)NC(=O)[C@H](CC(C)(C)C)NC(=O)[C@H](CC(=O)O)NC2=O (stereo partly drawn) [I-2089, Ac-PL3-Asp-Npg-B5-Asp-3COOHF-Ala-Ala-Phe-Leu-PyrS2-2F3MeF-BztA-dGln-NH2] | –
